Earlier results as cited in patent US12357569B2, “Infusing drug solution directly into brain fluid” (Biogen MA Inc., priority 2016, dated 2025).

Conditions: administered intravenously; CSF vs plasma

Substance: trastuzumab
- cerebrospinal fluid (CSF) level lower than plasma levels: 300 fold
